The values below come from ChEMBL document CHEMBL4190307, “Design, synthesis and biological evaluation of novel coumarin-N-benzyl pyridinium hybrids as multi-target agents for the treatment of Alzheimer's disease” (Eur J Med Chem, 2017).

Amino acid sequences for entries named in this document (tags omitted).
UniProt P27338, whole entry: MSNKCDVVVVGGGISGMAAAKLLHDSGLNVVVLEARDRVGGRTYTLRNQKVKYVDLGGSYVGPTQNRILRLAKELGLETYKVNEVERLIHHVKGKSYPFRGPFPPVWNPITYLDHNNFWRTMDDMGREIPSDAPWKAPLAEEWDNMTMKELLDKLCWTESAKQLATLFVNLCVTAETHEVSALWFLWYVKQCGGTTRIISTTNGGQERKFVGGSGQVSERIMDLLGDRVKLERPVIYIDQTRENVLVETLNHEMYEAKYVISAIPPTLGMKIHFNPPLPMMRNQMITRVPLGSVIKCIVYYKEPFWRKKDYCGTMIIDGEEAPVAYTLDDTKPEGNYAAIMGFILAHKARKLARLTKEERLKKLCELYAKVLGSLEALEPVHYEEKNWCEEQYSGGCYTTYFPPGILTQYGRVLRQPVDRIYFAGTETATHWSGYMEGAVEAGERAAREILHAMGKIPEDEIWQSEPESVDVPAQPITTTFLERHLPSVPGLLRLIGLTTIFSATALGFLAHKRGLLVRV

This data set has as its target Amine oxidase [flavin-containing] B (Homo sapiens, UniProt P27338). Description: Irreversible inhibition of recombinant human MAO-B assessed as enzyme activity recovery at 10 times IC50 using p-tyramine as substrate preincubated for 30 mins followed by 100 fold compound dilution by Amplex Red dye-based fluorometric method relative to control. More on the design: scale not given: the % may be the effect or the level left.

In the case of `C#CCN(C)Cc1ccccc1` [PARGYLINE], the Activity is < 10%.
